For this experiment, the target named is ζ opioid receptor (Homo sapiens, UniProt Q9NZT2). Description: Competition for binding of [3H][Met5]enkephalin (4.0 nM) in nuclear homogenates of HT-29 human colon tumors. The note with it: for IC50: 4.0 nM [3H][Met5]enkephalin.

Amino acid sequences for entries named in this document (tags omitted).
UniProt Q9NZT2, whole entry: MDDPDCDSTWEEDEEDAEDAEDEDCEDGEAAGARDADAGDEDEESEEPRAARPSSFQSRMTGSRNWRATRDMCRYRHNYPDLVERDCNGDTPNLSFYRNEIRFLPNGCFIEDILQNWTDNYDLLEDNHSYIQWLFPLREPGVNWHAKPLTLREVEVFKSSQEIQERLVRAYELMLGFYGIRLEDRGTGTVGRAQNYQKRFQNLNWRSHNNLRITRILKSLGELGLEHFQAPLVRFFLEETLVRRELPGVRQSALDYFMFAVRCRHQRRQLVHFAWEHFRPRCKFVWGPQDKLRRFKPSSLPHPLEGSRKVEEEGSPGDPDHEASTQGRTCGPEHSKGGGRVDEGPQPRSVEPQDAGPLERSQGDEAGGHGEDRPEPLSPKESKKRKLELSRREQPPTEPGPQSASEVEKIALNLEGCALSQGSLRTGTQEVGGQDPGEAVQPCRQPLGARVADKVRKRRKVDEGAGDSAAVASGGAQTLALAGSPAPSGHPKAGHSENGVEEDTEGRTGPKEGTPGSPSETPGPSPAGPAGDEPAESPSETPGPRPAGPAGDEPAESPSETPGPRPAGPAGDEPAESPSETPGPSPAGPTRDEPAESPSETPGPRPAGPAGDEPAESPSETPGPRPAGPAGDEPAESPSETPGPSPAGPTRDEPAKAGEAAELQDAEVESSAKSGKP

The source of these data is patent publication US6737397B1, “Control of cancer growth through the interaction of [MET5]-enkephalin and the zeta receptor” (The Penn State Research Foundation, priority 1996, dated 2004).

Molecules are shown by their SMILES. Read-outs that look alike come from different tables or passages of the source.

Regarding `Cc1cccc(NC(=O)N[C@@H]2N=C(c3ccccc3)c3ccccc3N(C)C2=O)c1`, the “ability to compete in displacing [3H]-[Met5]-enkephalin binding” value was “not very competitive” and the IC50 (commonly the point on the concentration scale where inhibition reaches its midpoint) was 1250 nM. Moreover, for the setting “read-out: KI nM, calculated from IC50 by Cheng and Prusoff”, the inhibition constant (Ki) (commonly a measure of affinity in units of concentration, obtained from inhibition or displacement) was 960 nM.
Turning to `CN1C(=O)[C@@H](NC(=O)c2cc3ccccc3[nH]2)N=C(c2ccccc2)c2ccccc21`, the “ability to compete in displacing [3H]-[Met5]-enkephalin binding” value is given as “not very competitive”. Where the note is “unit M printed in cell”, this molecule yielded an IC50 of over 10000 nM and an inhibition constant Ki of over 10000 nM.
